Laboratory results as given in the NIST ThermoML archive (doi:10.1016/j.jct.2016.10.010).

Assay: Molar enthalpy of transition or fusion
Details: Crystal; DSC

Question: For O=C(O)c1cn(C2CC2)c2cc(N3CCNCC3)c(F)cc2c1=O [ciprofloxacin], which “Molar enthalpy of transition or fusion” value is on record?
Answer: The value was 15.3 ± 3.11 kcal/mol.

Numbers after ± are expanded uncertainties.
